This test has as its target T1, inducible NO-synthase (NO-synthase 2) (Homo sapiens, UniProt P35228).
T1 construct: positive control (induction of the enzyme): mixtures of γ-interferon (1 000 U/ml) and interleukin-1β (100 U/ml); endogenous in cells
Put plainly: Activity on inducible NO-synthase: decrease in nitrate and nitrite concentration after stimulation of NO-synthase 2 (test of Heck et al.). It is filed as cell-based. Conditions: control compound at 200 μM, nitrites and nitrates measured. As for the experimental part: The activity of lipochroman-6 on inducible NO-synthase was evaluated in the test described by Heck et al. (J. B. C., Vol. 267, No. 30, 21277–21280, Oct. 25, 1992).
In order to determine the activity of the product to be tested, the amount of stable NO reaction products (nitrites and nitrates) is measured using the nitric calorimetric assay kit sold by the company Boehringer under the reference 1756.28.
The lipochroman-6 was tested at the concentrations of 0.005% and 0.01% (weight/volume) in ethanol.

Chains of the proteins cited; added tags and fusions are not shown.
UniProt P35228, whole entry, species assumed: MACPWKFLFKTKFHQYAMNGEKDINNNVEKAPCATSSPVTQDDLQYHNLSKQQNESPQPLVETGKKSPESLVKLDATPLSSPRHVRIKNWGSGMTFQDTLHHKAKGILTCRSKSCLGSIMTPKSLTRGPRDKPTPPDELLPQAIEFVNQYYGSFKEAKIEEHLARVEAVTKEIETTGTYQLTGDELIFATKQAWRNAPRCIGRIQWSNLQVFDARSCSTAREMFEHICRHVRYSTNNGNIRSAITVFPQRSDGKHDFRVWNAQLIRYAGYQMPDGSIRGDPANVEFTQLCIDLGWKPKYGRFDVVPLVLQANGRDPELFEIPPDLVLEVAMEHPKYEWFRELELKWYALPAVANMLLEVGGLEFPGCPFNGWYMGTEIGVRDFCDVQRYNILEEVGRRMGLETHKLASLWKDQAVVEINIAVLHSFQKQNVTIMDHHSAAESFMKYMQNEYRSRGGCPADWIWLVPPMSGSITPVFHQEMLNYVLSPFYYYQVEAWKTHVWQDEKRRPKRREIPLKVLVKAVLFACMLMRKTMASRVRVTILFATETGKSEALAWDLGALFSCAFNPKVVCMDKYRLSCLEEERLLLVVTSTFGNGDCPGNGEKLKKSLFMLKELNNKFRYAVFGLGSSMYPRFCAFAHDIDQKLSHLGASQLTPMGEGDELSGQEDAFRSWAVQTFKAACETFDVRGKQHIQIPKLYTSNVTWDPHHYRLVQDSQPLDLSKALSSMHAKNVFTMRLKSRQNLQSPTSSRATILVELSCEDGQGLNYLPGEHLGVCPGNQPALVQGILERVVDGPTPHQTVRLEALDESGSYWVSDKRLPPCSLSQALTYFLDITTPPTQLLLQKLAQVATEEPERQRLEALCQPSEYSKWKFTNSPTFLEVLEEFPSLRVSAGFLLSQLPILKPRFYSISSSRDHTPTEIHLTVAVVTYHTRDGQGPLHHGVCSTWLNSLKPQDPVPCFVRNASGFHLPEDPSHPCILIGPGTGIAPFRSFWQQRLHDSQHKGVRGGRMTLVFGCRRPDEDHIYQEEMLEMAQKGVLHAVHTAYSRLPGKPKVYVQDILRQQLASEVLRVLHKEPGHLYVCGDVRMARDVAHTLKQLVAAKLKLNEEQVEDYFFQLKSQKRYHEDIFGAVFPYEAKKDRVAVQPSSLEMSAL

The structures appear in SMILES notation.

Regarding `CNC(=N)NCCC[C@H](N)C(=O)O` [B, N^G-monomethyl-L-arginine (L form), reference compound], the “% inhibition” value is reported as 100%.
On to `CNC(=N)NCCC[C@H](N)C(=O)O` [C, N^G-monomethyl-L-arginine (D form), reference compound], for which the “% inhibition” value was determined as 0%.

The % inhibition is how much of the control response was suppressed. Higher therefore signals a response far below the control.

Source of the values: US7008630B2, “Lipochroman-6 as NO-synthase inhibitor and uses” (L' Oreal, priority 2000, dated 2006).
